The numbers were not newly measured in publication PMC3265362 (Biochemical Journal, 2008), which cites them from elsewhere.

In the data set the target is T1, human QR2 (Homo sapiens, UniProt P16083).
T1 sequence (P16083 1-231): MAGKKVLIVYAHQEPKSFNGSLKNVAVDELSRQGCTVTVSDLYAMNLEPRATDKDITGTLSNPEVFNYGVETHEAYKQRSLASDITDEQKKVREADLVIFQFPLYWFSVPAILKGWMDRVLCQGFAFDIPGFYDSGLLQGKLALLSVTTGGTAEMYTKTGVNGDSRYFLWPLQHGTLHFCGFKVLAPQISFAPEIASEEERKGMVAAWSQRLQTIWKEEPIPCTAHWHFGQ
As to conditions: read-out: IC50 value, Mammalian cells; cytosolic fraction of mammalian cell lines overexpressing human QR2, dihydrobenzylnicotinamide as co-substrate; ref [37]; cited from earlier work.

The term IC50 denotes the midpoint of a concentration-inhibition curve. Consider `COC(=O)Nc1ccc2[nH]cc(CCNC(C)=O)c2c1` [MCA-NAT, 5-methoxycarbonylamino-N-acetyltryptamine], for which the IC50 was 295 ± 19 µM.
